Among the data in ChEMBL document CHEMBL1125437, “Syntheses, resolution, and structure-activity relationships of potent acetylcholinesterase inhibitors: 8-carbaphysostigmine analogues” (J Med Chem, 1992) are IC50 values, retold here.

Amino acid sequences for entries named in this document (tags omitted). A change or cut given only in a name is not applied to a line headed by its entry.
UniProt P22303: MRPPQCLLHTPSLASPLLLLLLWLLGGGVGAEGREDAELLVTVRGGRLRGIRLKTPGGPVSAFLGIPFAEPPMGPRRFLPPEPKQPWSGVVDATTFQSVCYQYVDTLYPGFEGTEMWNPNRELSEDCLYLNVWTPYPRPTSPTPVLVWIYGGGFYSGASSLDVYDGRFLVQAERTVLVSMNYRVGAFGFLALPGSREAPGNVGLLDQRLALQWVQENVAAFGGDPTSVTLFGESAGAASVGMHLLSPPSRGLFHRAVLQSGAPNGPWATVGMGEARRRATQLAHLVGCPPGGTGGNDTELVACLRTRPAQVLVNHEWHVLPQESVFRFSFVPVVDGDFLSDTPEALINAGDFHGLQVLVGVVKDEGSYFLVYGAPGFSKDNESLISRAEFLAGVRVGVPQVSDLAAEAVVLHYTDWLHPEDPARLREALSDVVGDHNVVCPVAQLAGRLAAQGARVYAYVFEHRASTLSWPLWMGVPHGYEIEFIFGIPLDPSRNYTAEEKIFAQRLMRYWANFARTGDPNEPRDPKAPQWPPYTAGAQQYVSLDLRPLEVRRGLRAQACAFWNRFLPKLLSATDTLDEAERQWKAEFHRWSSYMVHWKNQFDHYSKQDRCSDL

This assay concerns the target Acetylcholinesterase (Homo sapiens, UniProt P22303). The assay can be described thus: In vitro inhibitory activity against human AchE (Acetylcholinesterase).

Molecules are shown by their SMILES. pIC50: −log10 of the molar value.

For the compound `CCN1CC[C@@]2(C)c3cc(OC(=O)NC(C)(C)C)ccc3CC12` (mixture of isomers), the negative logarithm of the IC50 (pIC50) is 4.90.
